Measurements from patent US20240043442A1, “SELECTIVE ESTROGEN RECEPTOR DEGRADERS AND USES THEREOF” (InventisBio LLC, priority 2016, published 2024).

Test system: breast cancer cell line MCF-7
Experiment: MCF-7 cell growth study (celltiter-glo luminescent viability assay);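 also: viability read by luminescence after compound exposure, relative to DMSO vehicle-treated wells on the same plate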
Type: cell-based
Details: Homo sapiens, MCF7, 144 h, MCF-7 cells, 6 days incubation; read-out: IC50 (nM), cell growth inhibition

- IC50: 0.4 nM
Structure (SMILES): C[C@@H]1Cc2c([nH]c3ccccc23)[C@@H](c2c(F)cc(/C=C/C(=O)O)cc2F)N1CC(C)(C)F [AZD9496, reference compound]
